For experiment [1], the target named is BRD4 (BD1) protein (Homo sapiens, UniProt O60885). Briefly: BRD4 inhibitory activity, TR-FRET assay of the BRD4 bromodomain. Particulars: read-out: BRD4 (BD1) IC50, BRD4 (BD1) protein 7.5 nM, Ac-H4 peptide 15 nM, room temperature 2 hours. How it is done:
BRD4 inhibitory activity was measured using a time resolved fluorescence resonance energy transfer (TR-FRET) experiment to verify the activity of BRD4 bromodomain.
(§1) The assay was performed in a final volume of 14 µl, optimized based on a CREBBP time resolved fluorescence resonance energy transfer (TR-FRET) assay kit (BPS Bioscience, cat. 32613) to maximize an assay window, and performed in a final volume of 14 µl, while maximizing the assay window. A TR-FRET fluorescence acceptor and a Tb donor were diluted in an assay buffer containing 2-[4-(2-hydroxyethyl)piperazin-1-yl]ethanesulfonic acid (hereafter, referred to as an assay buffer, BPS Bioscience, cat. 33012), and 3 µl of each solution was transferred to all wells of a white 384-low-volume well plate (Corning, cat. 4513). 2 µl of 4X Ac-H4 peptide (final concentration 15 nM) was transferred to high control wells and test wells. Each compound was prepared at 10 concentration points by serially diluting 3-fold from the highest concentration in a dimethyl sulfoxide solvent. The compound at each concentration was then diluted in the assay buffer to prepare a diluted compound solution that was 4-fold more concentrated than the final concentration. 2 µl of each compound or dimethyl sulfoxide prepared in this way was distributed into an assay plate so that the final test concentration was a minimum of 0.5 µM to a maximum of 10 µM (final DMSO concentration 1%). 6 µL of 1X assay buffer was added to low control wells and 2 µl was added to high control and test wells. Then, 2 µl of 4X BRD4 (BD1) protein (final concentration 7.5 nM, BPS bioscience, cat 31040) was added to initiate a PPI reaction. The plate was reacted at room temperature for 2 hours before measuring the signal. The TR-FRET signal was measured using an EnVision Multilabel plate reader (PerkinElmer; Mirror LNACE/DELFIA Dual/Bias). For data analysis, the values of each well were obtained using the TR-FRET ratio ((Signal 665 nm/Signal 615 nm) × 20000). Data analysis was performed using the TR-FRET ratio ((Signal 665 nm/Signal 615 nm) × 20000). Data were reported as percent inhibition compared to control wells based on the following equation: %Activity = ((FRETcompound - FRETLow av)/(FRETHigh av - FRETLow av)) × 100. IC50 analysis was determined by standard 4 parameter curve fitting according to an algorithm using GraphPad Prism 7.0 (GraphPad Software Inc., La Jolla, CA, USA). All data are expressed as mean ± standard error of the mean (SEM).

Sequences of proteins named here, by UniProt entry; tags and fusion partners are left off. Residues count along the entry.
UniProt Q92793, 1085-1192 limits assumed: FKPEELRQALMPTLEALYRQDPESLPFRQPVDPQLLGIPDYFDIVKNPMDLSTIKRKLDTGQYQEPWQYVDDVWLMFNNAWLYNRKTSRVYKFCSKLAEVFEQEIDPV

The target in experiment [2] is CBP BRD protein (Homo sapiens, UniProt Q92793). Briefly: CBP inhibitory activity, TR-FRET assay of the CBP bromodomain. Particulars: read-out: CBP BRD IC50, CBP BRD protein 7.5 nM, Ac-H4 peptide 85 nM, room temperature 2 hours. How it is done: A time resolved fluorescence resonance energy transfer (TR-FRET) experiment was used to verify the activity of CBP bromodomain.
as §1, with “Bioscience, cat. 32619) to maximize” for “Bioscience, cat. 32613) to maximize”, “(final concentration 85 nM) was” for “(final concentration 15 nM) was”, “µM (final dimethyl sulfoxide concentration 1%).” for “µM (final DMSO concentration 1%).”, “of 4X CBP BRD protein (final” for “of 4X BRD4 (BD1) protein (final”, “bioscience, cat 31128) was added” for “bioscience, cat 31040) was added”, “obtained using a TR-FRET ratio” for “obtained using the TR-FRET ratio”
(In TR-FRET formats the signal depends on donor and acceptor labels being close together.)

A value given as a limit tells only on which side of the number the result lay.

In general, IC50 refers to the concentration that gives 50% inhibition. `CNS(=O)(=O)c1ccc2nc(-c3c[nH]c4ccc(C)cc34)n(-c3ccc4c(c3)n(C)c(=O)n4C)c2c1`: the IC50 in experiment [1] is over 5 µM; in experiment [2], 0.5 to 5 µM. Taken in the same sequence, the figures for `Cc1ccc2c(-c3nc4cnccc4n3-c3ccc4c(c3)n(C)c(=O)n4C)c[nH]c2c1` were 0.5 to 5 µM and 0.5 to 5 µM. Taken in the same sequence, the figures for `CNS(=O)(=O)c1ccc2nc(-c3c[nH]c4cc(-c5cnn(C)c5)ccc34)n(-c3ccc4c(c3)n(C)c(=O)n4C)c2c1` were 0.5 to 5 µM and under 0.5 µM. Taken in the same sequence, the figures for `Cc1ccc2c(-c3nc4c(N(C)CCCN5CCCCCC5)ncnc4n3-c3ccc4c(c3)n(C)c(=O)n4C)c[nH]c2c1` were over 5 µM and 0.5 to 5 µM. Take `CNS(=O)(=O)c1ccc2nc(-c3ccn(Cc4ccccc4)c3)n(-c3ccc4c(c3)n(C)c(=O)n4C)c2c1`: the IC50 in experiment [1] and in experiment [2] was over 5 µM throughout. Regarding `Cn1c(=O)n(C)c2cc(-n3c(-c4c[nH]c5cccc(F)c45)nc4ccc(S(=O)(=O)NCCN5CCOCC5)cc43)ccc21`, the IC50 in experiment [1] and in experiment [2] was 0.5 to 5 µM throughout. In the case of `COc1ccc2c(-c3nc4c(N(C)CCC5CCN(C6CCCC6)CC5)ncnc4n3-c3ccc4c(c3)n(C)c(=O)n4C)c[nH]c2c1`, the IC50 was 0.5 to 5 µM in experiment [1] and under 0.5 µM in experiment [2].

Take `CNS(=O)(=O)c1ccc2nc(-c3cccn3Cc3cccc(F)c3)n(-c3ccc4c(c3)n(C)c(=O)n4C)c2c1`: the IC50 in experiment [1] is 0.5 to 5 µM; in experiment [2], over 5 µM. In the same order, the values of `CNS(=O)(=O)c1ccc2nc(-c3ccsc3C)n(-c3ccc4c(c3)n(C)c(=O)n4C)c2c1` are over 5 µM and 0.5 to 5 µM. In the case of `CNC(=O)c1c[nH]c2ccc(-n3c(-c4c[nH]c5cc(C)ccc45)nc4ccc(S(=O)(=O)NC)cc43)cc12`, the IC50 in experiment [1] and in experiment [2] was over 5 µM in each case.

As for `Cc1ccc2c(-c3nc4ccncc4n3-c3ccc4c(c3)n(C)c(=O)n4C)c[nH]c2c1`, the IC50 in experiment [1] was over 5 µM; in experiment [2], 0.5 to 5 µM. In the case of `CNS(=O)(=O)c1ccc2nc(-c3cn(C)cn3)n(-c3ccc4c(c3)n(C)c(=O)n4C)c2c1`, the half-inhibitory concentration (IC50) in experiment [1] and in experiment [2] was over 5 µM in each case.

Turning to `Cc1ccc2c(-c3nc4ccc(C(F)F)cc4n3-c3ccc4c(c3)n(C)c(=O)n4C)c[nH]c2c1`, the IC50 in experiment [1] and in experiment [2] was over 5 µM throughout. `CNS(=O)(=O)c1ccc2nc(-c3cccc4c(F)cccc34)n(-c3ccc4c(c3)n(C)c(=O)n4C)c2c1`: the 50% inhibitory concentration (IC50) in experiment [1] and in experiment [2] was 0.5 to 5 µM in each case. `CNS(=O)(=O)c1ccc2[nH]c(=O)n(-c3ccc4c(c3)n(C)c(=O)n4C)c2c1`: the IC50 in experiment [1] and in experiment [2] was over 5 µM throughout. Regarding `CCc1cccc2c(-c3nc4c(N(C)CC5CCN(C6CCCCC6)C5)ncnc4n3-c3ccc4c(c3)n(C)c(=O)n4C)c[nH]c12` (stereo not shown), the concentration for half-maximal inhibition (IC50) in experiment [1] was 0.5 to 5 µM; in experiment [2] it was under 0.5 µM. As for `CNC(=O)c1ccc2nc(-c3c[nH]c4cc(C)ccc34)n(-c3ccc4c(c3)n(C)c(=O)n4C)c2c1`, the concentration for half-maximal inhibition (IC50) in experiment [1] was over 5 µM; in experiment [2], 0.5 to 5 µM.

Regarding `CNS(=O)(=O)c1ccc2nc(-c3cccc4cccnc34)n(-c3ccc4c(c3)n(C)c(=O)n4C)c2c1`, the half-inhibitory concentration (IC50) was over 5 µM in experiment [1] and 0.5 to 5 µM in experiment [2]. In the case of `CNS(=O)(=O)c1ccc2nc(-c3ccc[nH]3)n(-c3ccc4c(c3)n(C)c(=O)n4C)c2c1`, the IC50 in experiment [1] was over 5 µM; in experiment [2], 0.5 to 5 µM.

Turning to `CNS(=O)(=O)c1ccc2nc(-c3cccc(C)c3C)n(-c3ccc4c(c3)n(C)c(=O)n4C)c2c1`, the IC50 in experiment [1] and in experiment [2] was 0.5 to 5 µM in each case. As for `Cc1ccc2c(-c3nc4ccc(S(N)(=O)=O)cc4n3-c3ccc4c(c3)n(C)c(=O)n4C)c[nH]c2c1`, the IC50 in experiment [1] is 0.5 to 5 µM; in experiment [2], under 0.5 µM. In the same order, the values of `CNS(=O)(=O)c1ccc2nc(-c3c[nH]c4cccc(C5CC5)c34)n(-c3ccc4c(c3)n(C)c(=O)n4C)c2c1` are over 5 µM and 0.5 to 5 µM. Taken in the same sequence, the figures for `CNS(=O)(=O)c1ccc2nc(-c3c[nH]c4cccc(Cl)c34)n(-c3ccc4c(c3)n(C)c(=O)n4C)c2c1` were 0.5 to 5 µM and under 0.5 µM. Taken in the same sequence, the figures for `CNS(=O)(=O)c1ccc2nc(-c3cc[nH]c3)n(-c3ccc4c(c3)n(C)c(=O)n4C)c2c1` were over 5 µM and 0.5 to 5 µM. Regarding `CNS(=O)(=O)c1ccc2nc(-c3c[nH]c4cc(C)ccc34)n(-c3cccc(N(C)C(=O)N(C)C)c3)c2c1`, the IC50 in experiment [1] and in experiment [2] was over 5 µM in each case. As for `CNS(=O)(=O)c1ccc2nc(-c3cccn3Cc3ccc(F)cc3)n(-c3ccc4c(c3)n(C)c(=O)n4C)c2c1`, the IC50 is 0.5 to 5 µM in experiment [1] and over 5 µM in experiment [2]. Taken in the same sequence, the figures for `CNS(=O)(=O)c1ccc2nc(-c3cccn3CC3CC3)n(-c3ccc4c(c3)n(C)c(=O)n4C)c2c1` were 0.5 to 5 µM and 0.5 to 5 µM. Taken in the same sequence, the figures for `CNS(=O)(=O)c1ccc2nc(-c3csc4ccccc34)n(-c3ccc4c(c3)n(C)c(=O)n4C)c2c1` were over 5 µM and 0.5 to 5 µM. Taken in the same sequence, the figures for `CNS(=O)(=O)c1ccc2nc(-c3ccc4[nH]ncc4c3)n(-c3ccc4c(c3)n(C)c(=O)n4C)c2c1` were 0.5 to 5 µM and 0.5 to 5 µM. For `CNS(=O)(=O)c1ccc2nc(-c3c[nH]c4nccc(Cl)c34)n(-c3ccc4c(c3)n(C)c(=O)n4C)c2c1`, the IC50 in experiment [1] was 0.5 to 5 µM; in experiment [2], under 0.5 µM. In the case of `CNS(=O)(=O)c1ccc2nc(-c3ccc(NC(C)=O)cc3C)n(-c3ccc4c(c3)n(C)c(=O)n4C)c2c1`, the IC50 in experiment [1] and in experiment [2] was over 5 µM throughout. On to `CNS(=O)(=O)c1ccc2nc(-c3c[nH]c4ccncc34)n(-c3ccc4c(c3)n(C)c(=O)n4C)c2c1`, for which the 50% inhibitory concentration (IC50) in experiment [1] is over 5 µM; in experiment [2] it was 0.5 to 5 µM. For the molecule `CNS(=O)(=O)c1ccc2nc(-c3cn(CCN4CCCC4)c4cc(C)ccc34)n(-c3ccc4c(c3)n(C)c(=O)n4C)c2c1`, the concentration for half-maximal inhibition (IC50) in experiment [2] was in the range of 0.5 to 5 µM. Same read-out and setting: with `CN(CCCn1cc(Cl)cn1)c1ncnc2c1nc(-c1c[nH]c3cc(Br)ccc13)n2-c1ccc2c(c1)n(C)c(=O)n2C` the figure was over 5 µM; with `CNS(=O)(=O)c1ccc2nc(-c3coc4ccccc34)n(-c3ccc4c(c3)n(C)c(=O)n4C)c2c1`, 0.5 to 5 µM.

As to `CNS(=O)(=O)c1ccc2nc(-c3cnn4cccnc34)n(-c3ccc4c(c3)n(C)c(=O)n4C)c2c1`, the 50% inhibitory concentration (IC50) in experiment [2] fell in the range of 0.5 to 5 µM. With `CNS(=O)(=O)c1ccc2nc([C@@H]3CCCC(=O)N3c3ccc(F)c(F)c3)n(-c3ccc4c(c3)n(C)c(=O)n4C)c2c1`, the IC50 in experiment [2] was over 5 µM.

For the molecule `Cc1ccc2c(-c3nc4ccc(S(=O)(=O)NC(C)C)cc4n3-c3ccc4c(c3)n(C)c(=O)n4C)c[nH]c2c1`, the IC50 in experiment [2] lay in the range of 0.5 to 5 µM.

Source of the values: patent EP4837907A1, “NOVEL COMPOUND USED AS CBP/P300 INHIBITOR, AND PHARMACEUTICAL COMPOSITION FOR PREVENTING OR TREATING CANCER, INFLAMMATORY DISORDERS, OR AUTOIMMUNE DISEASES COMPRISING SAME AS ACTIVE INGREDIENT” (dated 2026).
